Reference: patent US9656017B2, “Infusion delivery devices and methods” (priority 2014, dated 2017)

Tests used:
[1] = 24-hour plasma profiles of endogenous insulin and amylin in healthy adults, basal/bolus AUC analysis; type: in vivo, human; settings: for In Vivo AUC pM × 24 hr: endogenous, molar
Excerpt: This difference in bolus/basal ratios was quantified by estimating the AUCs of the basal and bolus components, which would reflect the 24-hour hormone exposures attributable to these components. FIG. 6 and FIG. 7 show this basal/bolus allocation for amylin and insulin when the lowest observed levels of endogenous hormone are used as the upper boundary of the basal area.
Comparing AUCs results in the discovery that there is a striking difference between hormones with respect to the importance of bolus exposure compared to basal exposure, as summarized in Table 1. Measured as a ratio of bolus-to-basal exposure, the insulin bolus component is about three times as important as that of amylin. Measured as percentages of total daily hormone exposures, the “pancreatic insulin pump” secretes about twice as much insulin during mealtime boluses compared to basal, whereas the “pancreatic amylin pump” is set to the reverse ratio. See the example in Table 1.
Note that these calculations are based upon the specific clinical study shown in FIG. 5, and so the quantities presented here are used to illustrate the difference between insulin and amylin plasma levels. In other words, amongst other things, we have discovered that insulin is primarily a mealtime bolus hormone, whereas amylin is primarily a background basal hormone.
It is noted with regard to Table 1 that both the plasma insulin and amylin were measured with immunometric assays that are normally highly specific but are subject to cross reactions with other analytes that contain both binding sites. […] Either this is background amylin expression which been reported in non-beta-cell tissues, or it is nonspecific background noise in the amylin assay. In either case the basal amylin level in the above figures should therefore be reduced by about 17%. The same adjustment should also be made for any background insulin plasma levels. However, the insulin data is not available, so for this discussion the unadjusted plasma amylin basal level of 9.3 pM will be used in this example.
The following calculations are presented as an example of how appropriate amylin agonist doses can be determined. This insulin-dependent dosing can be achieved by calculating two separate components of pramlintide dosing: (1) the weight ratio of the daily basal component of amylin-to-insulin; and (2) the weight ratio of the daily bolus component of amylin-to-insulin.

[2] = subcutaneous (SC) injections; cited from earlier work
[3] = plasma, healthy adults, based upon AUCs

Substance: Insulin
- In Vivo AUC pM × 24 hr ([1]; basal component): 2045.34 pM × 24 hr
- In Vivo AUC pM × 24 hr ([1]; bolus component): 3813.31 pM × 24 hr
- Basal Level ([1]; plasma, healthy adults, endogenous hormone, based upon AUCs, unadjusted): 85.2 pM
- Basal as % Total [1, 3]: 35%
- Bolus/Basal Ratio [1, 3]: 1.9
- Bioavailability [2]: 70%
